Results from US7635693B2, “Methods for preventing and treating cancer using N-thiolated β-lactam compounds and analogs thereof” (University of South Florida, priority 2002, dated 2009).

Experiments:
Jurkat T cells = experiment: TUNEL assay (DNA strand breaks), Jurkat T cells; assay type: cell-based, human
Experimental: Terminal deoxynucleotidyl transferase-mediated UTP nick end labeling (TUNEL) was performed to determine the extent of DNA strand breaks. TUNEL assay was performed with an APO-Direct kit per the manufacturer's instructions. In brief, cells are fixed in 1% paraformaldehyde and ethanol at […] overnight and then permeabilized with Proteinase K. After permeabilization, Fluorescein conjugated dNTP's and TdT enzyme (Terminal Deoxynucleotidyl Transferase) are added to the cells. The TdT enzyme is then able to label free ends of DNA with Fluorescein conjugated dNTPs that could then be detected by flow cytometry.
The assay was performed following manufacturer's instruction using the APO-Direct kit. In brief, the harvested cells were fixed in 1% paraformaldehyde for 15 min on ice, washed with PBS, and then fixed again in 70% ethanol at −20° C. overnight. The cells were then incubated in DNA labeling solution (containing terminal deoxynucleotidyl transferase (TdT) enzyme, fluorescein-conjugated dUTP and reaction buffer) for 90 min at 37° C. After removing the DNA labeling solution by rinsing cells with Rinsing Buffer, the cells were incubated with the Propidium Iodide/RNase A solution, incubated for 30 min at room temperature in the dark, and then analyzed by flow cytometry within 3 h of staining.

PARP = PARP cleavage, Western blot, Jurkat T cells; assay type: cell-based, human
Excerpt: A library of β-lactam analogs was screened for their ability to induce apoptosis. […] This is followed by preparation of cell lysates and measurement of apoptosis-specific caspase-3 activation (by cell-free caspase-3 activity assay) and PARP cleavage (by Western blotting).

O=[N+]([O-])c1ccc(-c2nc(-c3ccc(F)cc3)c(-c3ccncc3)[nH]2)cc1 [PD-169316, 4-(4-fluorophenyl)-2-(4-nitrophenyl)-5-(4-pyridyl)-1H-imidazole, reference compound]
TUNEL positivity on co-treatment with lactam 1 (Jurkat T cells): 95%
effect on PARP cleavage induced by lactam 1 (PARP): completely inhibited
